Test results published in ChEMBL document CHEMBL3886853, “Substituted 4-aminocyclohexane derivatives” (2016).

Target: Mu-type opioid receptor (Homo sapiens, UniProt P35372)
Assay: Binding Assay: The affinity to the human μ-opiate receptor was determined in a homogeneous preparation in microtiter plates. For this, dilution series of the respective compound to be tested were incubated for 90 minutes at room temperature with a receptor membrane preparation (15-40 mg of protein per 250 μl of incubation batch) of CHO-K 1 cells, which express the human μ-opiate receptor (RB-HOM r

COc1ccc(C2(N(C)C)CCC(c3ccccc3)(N(C)C)CC2)cc1 (stereo unspecified)
Ki: 0.66 µM
